From article PMC5164969 (Bioorganic & medicinal chemistry, 2016)

Test: Mammalian cell cytotoxicity, summary over both cell lines
Format: cell-based
Details: human

In the case of Cl.N=C(N)N/N=C/c1ccc(-c2ccc(/C=N/Nc3ccc(F)cc3)cc2)cc1 [Compound 7Ac], the IC50 is reported as 4.4 to 13.9 mg/L.
